Patent publication US20010041716A1, “Compositions and methods for locally treating inflammatory diseases” (priority 1999, published 2001)

Columns and labels:
[1] = pH 6
Procedure: Skin Preparation and Permeation: The human cadaver skin used in the permeation studies was obtained from the Anatomical Donation Program at the University of Michigan. Vertical Franz diffusion cells with a 4 ml capacity receptor compartment and a 0.8 cm^2 diffusion area were used in the permeation studies. The epidermal layer of the skin was mounted carefully onto the lower half of the cells of the difflusion apparatus with the stratum corneum facing up. The receptor compartments were filled with isotonic phosphate buffer (pH 6.4). […]
The permeability coefficient for a given run was calculated from Fick's law of diffuision: [formula]
dC/dt is the steady-state slope of a plot of the amount of substance which had penetrated the skin against time in terms of jig/h. It was determined by taking the ratio of the total amount permeated in an interval of time to the length of the time interval. […]
The permeation parameters (flux, J; lag time, TL and permeability coefficient, P) of thalidomide and its N-alkyl analogs from their saturated aqueous solutions (pH 6.0) and an ethanol/water/octanol vehicle are summarized in Table 4. […] The steady-state flux was determined from the slope of the linear portion of the cumulative amount-time plot. The lag time (TL) was determined by extrapolating the linear portion of the curve to its intersection with the time axis. […]

[2] = Procedure: Differential Thermal Analysis: The heat of fusion (ΔHf) and the entropy of fusion (ΔSf) of thalidomide and its N-alkyl analogs were determined with a Perkin-Elmer DSC7 Differential Scanning Calorimeter (DSC), which was calibrated with an indium standard.
Using this surmise, the solubility parameters for all the solutes were calculated. […] In each case the solutions are considered ideal at the peak of their parabolas.

## N-propyl thalidomide
[1]
  Lag time TL = SD: 1.8 ± 1.1 h
[2]
  Activity of solid phase a2^s, ΔCp = 0: 5.18 × 10^−2
  Activity of solid phase a2^s, ΔCp = ΔSp: 7.89 × 10^−2
  Ln X2,ideal, ΔCp = 0: −2.96
  Ln X2,ideal, ΔCp = ΔSr: −2.54
